We go through one substance from PMC5850989 (Toxicology letters, 2016).

Series [1] is classed as in vivo, CB-17 scid/scid mice. Conditions: KB-3-1 xenograft.
Series [2] is classed as in vivo, SCID mice. Conditions: Bea-treated mice, 5 mg/kg i.p.
Series [3] is described as follows: Evaluation of toxicological effects: body weight, behavior, histology. The format is in vivo, SCID mice. The following applies: 5 mg/kg i.p., short-term and 9-day schedules.
The conditions of series [4]: oral administration; ref Panel, 2014; cited from earlier work.
Series [5] relates to CYP 450 enzymes. Conditions: ref Mei et al., 2009; cited from earlier work.
[6] abbreviates: 5 mg/kg b.w. i.p. daily, 9 days, mean ± SD (n = 4).

In series [1] (setting [6]), Beauvericin gave a Concentration in serum of 2.6 ± 0.6 µg/kg and a Concentration in tumor of 3.4 ± 0.4 µg/kg. Also, the “Degradation products (metabolites) in tumor tissues” value in series [1] (9-day treatment, 5 mg/kg i.p.) was “no degradation products could be found”. For the same substance, the “Tumor level compared to serum” value in series [1] (9-day treatment) is 1.3 fold. In addition, the “Metabolites in the assayed samples” value in series [2] was “no metabolites were detected”. Also, the “Apparent signs of toxicity (food and fluid consumption, fatigue, body weight alterations)” value in series [3] is listed as “None of the treatment schedules showed apparent signs of toxicity”. In addition, in series [4], the LD50 was ≥ 100 mg/kg b.w. Also, in series [5], the “Inhibition of CYP 450 enzymes” value was “potent inhibitor of diverse CYP 450 enzymes”.
